From US20020119121A1, “Compositions and methods for inducing specific cytolytic T cell responses” (priority 2000, published 2002)

Test system: 51Cr-labeled recipient LB
Test: Inhibition of LB-directed cytotoxicity by granule exocytosis pathway blockers
Conditions: CMA 1, 10, 100 nM/L for 2 h or SrCl2 5, 25, 50 mM/L for 18 h; one mean given for either reagent; FIG. 5 E:T 5:1
Excerpt: Cytolytic activity of a CTL refers to the secretion of the contents of secretory granules into the immediate vicinity of the target cell to which it attaches. The granules contain perforins, various lysosomal enzymes, and calcium binding proteins that destroy the target cell.

strontium chloride [SrCl2]
mean inhibition of LB-directed cytotoxicity: 87%
